# Reference: PubChem BioAssay AID720504 (National Center for Advancing Translational Sciences (NCATS), 2013)
# Protein sequences, listed by entry. Tags and fused reporters are not part of them.
# UniProt P53350, whole entry, looked up: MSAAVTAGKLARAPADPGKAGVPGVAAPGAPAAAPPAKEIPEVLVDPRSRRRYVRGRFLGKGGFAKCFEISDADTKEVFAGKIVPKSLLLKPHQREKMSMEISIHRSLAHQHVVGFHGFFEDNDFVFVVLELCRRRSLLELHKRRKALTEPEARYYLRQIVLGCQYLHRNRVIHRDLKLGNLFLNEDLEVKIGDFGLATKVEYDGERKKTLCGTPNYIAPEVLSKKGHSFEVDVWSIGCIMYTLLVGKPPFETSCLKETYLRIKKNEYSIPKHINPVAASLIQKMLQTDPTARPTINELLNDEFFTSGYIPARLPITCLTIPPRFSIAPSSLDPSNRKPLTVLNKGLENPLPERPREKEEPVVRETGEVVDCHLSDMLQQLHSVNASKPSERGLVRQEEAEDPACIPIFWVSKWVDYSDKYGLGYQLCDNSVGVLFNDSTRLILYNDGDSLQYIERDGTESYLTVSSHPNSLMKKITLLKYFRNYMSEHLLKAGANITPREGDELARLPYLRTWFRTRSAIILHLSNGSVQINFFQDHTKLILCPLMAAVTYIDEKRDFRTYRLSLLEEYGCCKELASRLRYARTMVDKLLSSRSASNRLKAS
# This is a selection; strong and weak results do not stand in their true shares. Records with an inconclusive call do not appear. The source made the active and inactive calls. Calls come from the whole dose curve; as a rule, active = well fitted inhibition curve with a large enough effect; inconclusive = small, poorly fitted or top-dose-only effect; inactive = flat fitted curve, though single readings scatter.
# Molecular target: Serine/threonine-protein kinase PLK1 (Homo sapiens) (UniProt P53350)
# Assay: qHTS for Inhibitors of PLK1-PDB (polo-like kinase 1 - polo-box domain): Primary Screen; note: nearly all actives have a fitted effect of over 65% in size; for max response, negative = inhibition: series mostly up to about 57 µM
# Conditions: Plk1 PBD binding of FITC phosphopeptide, fluorescence polarization
# % is set by controls: 0 for no effect and ±100 for the full control effect; potency is the fitted concentration of half-maximal effect.
SMILES,"max response, negative = inhibition",Potency
O=[N+]([O-])c1cccc2n[nH]nc12,inactive: -10.9%,–
O=[N+]([O-])c1cc([N+](=O)[O-])c(CCNc2ccccc2)c([N+](=O)[O-])c1,inactive: -17.2%,–
CCc1nc2c(n1)c1c(non1O)c1c2no[n+]1[O-],inactive: -1.62%,–
Cc1ccc(NP(=O)(Oc2ccccc2)Oc2ccccc2)nc1,inactive: -2.88%,–
Nc1ccc([As](=O)(O)c2ccc(N)cc2)cc1,inactive: 6.46%,–
CCN(/C(=N/P(=O)(N1CCOCC1)N1CCOCC1)N1CCOCC1)c1ccc(OC)cc1,inactive: -2.92%,–
CN(C)C(=O)OCCc1n(C)cc[n+]1C,inactive: 4.69%,–
CC(C)c1nc(Nc2ccccc2)n(P(=O)(N(C)C)N(C)C)n1,inactive: -0.07%,–
CC(C)=N/N=C(\N)N[N+](=O)[O-],inactive: 1.83%,–
CC1CCN(C(=O)Oc2c(Cl)cc(Cl)c3cccnc23)CC1,inactive: 1.46%,–
c1cc(-c2nn[nH]n2)ccc1-c1nn[nH]n1,inactive: -3.71%,–
O=P(Nc1nccs1)(c1ccccc1)c1ccccc1,inactive: -1.57%,–
CC(C)C(=O)NC(Sc1ccccc1)C(Cl)(Cl)Cl (centres undefined),inactive: -4.49%,–
c1nnnn1CCn1cnnn1,inactive: -2.87%,–
COc1ccc(N)c([N+](=O)[O-])c1[N+](=O)[O-],inactive: -29.1%,–
Nc1ccc(CCCCOc2ccccc2)cc1,inactive: -9.93%,–
CN(C)C1(CNC(=O)c2ccc(Cl)c(S(N)(=O)=O)c2)CCCCC1,inactive: 3.23%,–
O=P(Nc1ccccn1)(c1ccc(Br)cc1)c1ccc(Br)cc1,inactive: -4.79%,–
C[C@H]1OP(=O)(Oc2ccccc2)[C@H](O)[C@H](O)[C@H]1N=[N+]=[N-] (some centres undefined),inactive: -13.6%,–
O=P(Nc1nc2ccccc2s1)(c1ccccc1)c1ccccc1,inactive: -27.5%,–
O=[N+]([O-])c1ncn(CCn2cnc([N+](=O)[O-])n2)n1,inactive: -13%,–
O=[N+]([O-])c1ccc(O)c(/C=N/Nc2ccc([N+](=O)[O-])cc2[N+](=O)[O-])c1,inactive: -28.7%,–

SMILES,"max response, negative = inhibition",Potency
O=[As](O)(c1ccccc1)c1ccc(O)cc1,inactive: 1.76%,–
C(Cc1nn[nH]n1)Cc1nn[nH]n1,inactive: -7.8%,–
Nc1ccc([As](=O)(O)c2ccc([N+](=O)[O-])cc2)cc1,inactive: -9.15%,–
O=C(OC1CN2CCC1CC2)c1cccc(Cl)c1 (centres undefined),inactive: -0.591%,–
O=C(NC1CCS(=O)(=O)C1)NP(=S)(Oc1ccccc1)Oc1ccccc1 (centres undefined),inactive: -9.23%,–
CCNC(=S)/N=C(\N)N[N+](=O)[O-],inactive: 4.04%,–
Cc1ccc(NP(=O)(Oc2cccc(C)c2)Oc2cccc(C)c2)nc1,inactive: 2.61%,–
c1ccc(-c2nn[nH]n2)c(-c2nn[nH]n2)c1,inactive: -10.5%,–
O=P1(N(CCCl)CCCl)OCCC2CCCCN21 (centres undefined),inactive: -1.34%,–
CC(=O)NC(SC(=S)N(CC(C)C)CC(C)C)C(Cl)(Cl)Cl (centres undefined),inactive: -28%,–
Cc1ccc(OP(=O)(Nc2ccccn2)Oc2ccc(C)cc2)cc1,inactive: -22.3%,–
COC(=O)c1cc2c(s1)N=C(c1ccccc1)N(C)P2(=O)N1CCOCC1 (centres undefined),inactive: 3.03%,–
CCC(=O)N1C2C3N(C(=O)CC)C1C1N(C(=O)CC)C(C(N1C(=O)CC)N3C(=O)CC)N2C(=O)CC,inactive: 0.992%,–
O=C(OC1CN2CCC1CC2)c1ccccc1 (centres undefined),inactive: -1.08%,–
O=c1c2cc([N+](=O)[O-])ccc2[nH]c2c([N+](=O)[O-])cc([N+](=O)[O-])cc12,inactive: -29%,–
CN(C)C(=O)Oc1noc2ccccc12,inactive: -2.83%,–
CC(NC(=O)COC(=O)C(O)(c1ccccc1)c1ccccc1)c1ccccc1 (centres undefined),inactive: 6.83%,–
Cc1ccccc1OP(=O)(Nc1ccccn1)Oc1ccccc1C,inactive: 6.02%,–
CCOc1ccc(C2=NCC(CBr)S2)cc1 (centres undefined),inactive: -9.15%,–
O=P1(Nc2nc3ccc(Cl)cc3s2)COc2ccccc2O1 (centres undefined),inactive: -6.69%,–
CCc1cc(O)c([N+](=O)[O-])c(C)c1[N+](=O)[O-],inactive: -2.78%,–
CC(C)(C)C(=O)NC(Sc1ccccc1)C(Cl)(Cl)Cl (centres undefined),inactive: -2.7%,–

SMILES,"max response, negative = inhibition",Potency
COC(=O)C1(C)COP(=O)(NCc2ccccc2)OC1 (centres undefined),inactive: -4.03%,–
CC(=O)c1ccc(N2CC2c2ccncc2)cc1 (centres undefined),inactive: -0.0549%,–
N#C/C(=C\c1ccc(N(CCBr)CCBr)cc1)C(N)=O,inactive: -17.2%,–
C[C@H]1OP(=O)(Oc2ccccc2)C[C@@H]2O[C@@H]21 (some centres undefined),inactive: 1.73%,–
C[C@@H]1C=CCP(=O)(Oc2ccccc2)O1 (some centres undefined),inactive: -7.29%,–
Cc1ccccc1CN(C)C(=O)COC(=O)C(O)(c1ccccc1)c1ccccc1,inactive: -10.2%,–
CC(=O)Nc1ccc(Oc2c([N+](=O)[O-])cc([N+](=O)[O-])cc2[N+](=O)[O-])cc1,–,active: 11.9 µM
CC(=O)Nc1ccc([As](=O)(O)O)c(O)c1,inactive: 5.05%,–
CS(=O)(=O)c1ccc(Cl)c(NC(=O)COC(=O)C(O)(c2ccccc2)c2ccccc2)c1,inactive: -2.7%,–
O=[As](O)(O)c1cccnc1,inactive: -4.85%,–
COc1cc(C(=O)NCC2(N3CCOCC3)CCCCC2)cc(Cl)c1OC(C)C,inactive: -8.46%,–
O=C(OC1CN2CCC1CC2)c1ccc(Cl)cc1 (centres undefined),inactive: -4.71%,–
Cc1cccc(OCC(=O)OC2CN3CCC2CC3)c1 (centres undefined),inactive: -16.6%,–
O=[As](O)(c1cccc(O)c1)c1cccc(O)c1,inactive: 4.28%,–
CCCOP(=S)(Nc1nc(N)cc(=O)[nH]1)OCCC,inactive: 1.67%,–
Cc1ccc(NCCc2c([N+](=O)[O-])cc([N+](=O)[O-])cc2[N+](=O)[O-])cc1,inactive: -18%,–
CCOP(=O)(Nc1cccc2ccccc12)OCC,inactive: -13.5%,–
COc1cc(C2NCCC3(OCCO3)C2(C)C)cc(OC)c1OC (centres undefined),inactive: 2.17%,–
CS(=O)(=O)c1cc([N+](=O)[O-])c2no[n+]([O-])c2c1,–,active: 1.5 µM
O=P(Nc1nccs1)(Oc1ccccc1)Oc1ccccc1,inactive: -7.42%,–
